Assay [1] deals with T1, CCR5 (Homo sapiens, UniProt P51681). As to the kind of experiment: CCR5-mediated cell-cell fusion (CCF) assay, single agents. Also on record: host or cells: CEM-NKr-CCR5-Luc. The format is cell-based. On the procedure: CCF assay was performed as described before (C. Ji, J. Zhang, N. Cammack and S. Sankuratri, J. Biomol. Screen. 2006 11(6):652-663). […] At the end of co-culture, 15 μL of Steady-Glo luciferase substrate was added into each well, and the cultures were sealed and gently shaken for 45 min. The luciferase activity were measured for 10 sec per well as luminescence by using 16-channel TopCount NXT (PerkinElmer, Shelton, Conn.) with 10 min dark adaptation and the readout is count per second (CPS). […] Five μL each of the two diluted compound or mAb to be tested for drug-drug interactions were added to the Hela-R5 cells right before the addition of target cells.

Chains of the proteins cited; added tags and fusions are not shown.
UniProt P51681, whole entry: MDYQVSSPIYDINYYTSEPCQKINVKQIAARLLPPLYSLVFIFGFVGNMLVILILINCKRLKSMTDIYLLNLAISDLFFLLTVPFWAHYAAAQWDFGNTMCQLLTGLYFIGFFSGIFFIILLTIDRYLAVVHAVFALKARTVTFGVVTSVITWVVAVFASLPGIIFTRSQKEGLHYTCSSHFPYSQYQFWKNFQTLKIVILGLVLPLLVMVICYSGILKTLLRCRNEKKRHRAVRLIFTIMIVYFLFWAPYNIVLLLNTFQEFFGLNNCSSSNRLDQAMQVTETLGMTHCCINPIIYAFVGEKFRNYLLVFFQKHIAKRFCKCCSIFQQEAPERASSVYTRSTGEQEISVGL

Assay [2] addresses T1, CCR5. As to the kind of experiment: Drug interaction (synergy) analysis of two-drug combinations in the CCF assay (Greco and Prichard models). The format is cell-based. Also on record: host or cells: CEM-NKr-CCR5-Luc. From the text:
For the in vitro cell-cell fusion studies, the possibility of either enhanced (synergy) or reduced (antagonism) efficacy of CCR5 antibodies in combination with CCR5 antagonists was considered. Models and approaches for the assessment of in vitro drug interactions have been described and reviewed (M. C. Berenbaum J. Theor. Biol. 1985 114:413-431, Pharmacol. Rev. 1989 41:93-141; W. R. Greco et al. Pharmacol. Rev. 1995 47:331-385; M. N Pritchard and C. Shipman Jr. Antivir. Res. 1990 14:181-205; J. Suhnel Antivir. Res. 1990 13:23-39.) Synergy and antagonism are defined as departure from the hypothesis that there is no interaction between two drugs. The Lowe additivity (LA) and Bliss independence (BI) theories are the two primary candidates for reference models which follow two different additive drug interaction theories.
Drug interaction models based on the LA theory assume that a drug cannot interact with itself. […] A seven-parameter non-linear model (i) was fit to all experimental data including percent inhibitions calculated from replicates for all concentrations of the two drugs alone and in combination from two 384-well plates. […]
Loewe additivity or no interaction is indicated when the 95% confidence interval of a includes 0. Furthermore, the predicted additivity of the drugs combined was calculated by using all estimated parameters of the Greco model, except a that is fixed at 0. […]

`Cc1nnc(C(C)C)n1[C@H]1C[C@H]2CC[C@@H](C1)N2CC[C@H](NC(=O)C1CCC(F)(F)CC1)c1ccccc1` [MVC]: in assay [1] (added alone at 0.27 nM), the “percent inhibition of cell-cell fusion” value is 13%. Besides, the “concentration required to reach 95% inhibition” value in assay [1] (drug alone) is 22.2 nM. For the same molecule, the “concentration required to achieve 95% inhibition in combination” value in assay [2] (0.8 nM ROAb14 plus 2.47 nM MVC added together) was 2.47 nM. In addition, the “reduction in dose to reach 95% inhibition, combination versus alone” value in assay [2] (ROAb14 plus MVC) came out at 9.8 fold.

(Values after patent US20080299132A1, “Synergistic compositions for treating HIV-1” (Roche Palo Alto LLC, priority 2006, published 2008).)
